US20080194611A1, “Modulation of Cell Barrier Dysfunction” (priority 2005, published 2008)

How the values were obtained:
[1] = system: P. aeruginosa whole cells and membrane fractions; test: ELISA / immunofluorescence binding of cytokines to P. aeruginosa cells and membrane fractions; set-up: species or system Pseudomonas aeruginosa; conditions: PAO1 membranes
Procedure: IFN-γ direct binding to a protein on the surface of P. aeruginosa, in the course of virulence activation, was also investigated. ELISA binding assays were performed by first coating microtiter plates with P. aeruginosa (strain PAO1), then adding recombinant human IFN-γ (rH IFN-γ), followed by biotin-labeled anti-IFN-γ antibody. […] The ELISA data were confirmed by the results of immunofluorescent imaging of bacterial cells exposed to IFN-γ followed by biotin-labeled anti-IFN-γ antibody and Alexa 594-labeled streptavidin. The vast majority of bacterial cells (73%±3.2% vs. 8.5%±2.5%) bound IFN-γ (FIG. 3B). The binding capacity of the IFN-γ to the P. aeruginosa was affected by bacterial growth phase (FIG. 4A). In order to localize the binding site of IFN-γ to P. aeruginosa (PAO1), equal protein concentrations of membrane and cytosol fractions of P. aeruginosa were prepared and coated onto ELISA microtiter plates. […] To determine if the observed membrane binding by IFN-γ was protein dependent, membrane fractions were treated with proteinase K for 3 hours and IFN-γ binding assessed. […] We next determined if other cytokines similarly would bind to P. aeruginosa cell membranes by performing reiterative binding studies with human TNF-α, IL-2, IL-4, IL-10, EGF, and TGF-β.

[2] = system: PA-I lectin/adhesin expression in P. aeruginosa PA27853 and PAO1

IL-2: human cytokine
binding to P. aeruginosa membrane fractions [1]: No binding was observed | PA-I expression, compound alone in media [2]: none of the other compounds alone had any effect
